# Publication PMC9865957, “^68Ga-HBED-CC-WL-12 PET in Diagnosing and Differentiating Pancreatic Cancers in Murine Models” (Pharmaceuticals, 2023)
# Test system: PANC02 tumors
# Conditions: mouse, in vivo, iv
# Protocol: C57BL/6 female mice were obtained from Shanghai Lingchang Biotechnology Co., LTD, Shanghai, China. The animals were kept in the Animal Experiment Center of Shanghai Changhai Hospital of SPF level. Then, 1 × 10^6 PANC02 cells in 0.1 mL mixture of PBS and Matrigel at a 1:1 ratio was inoculated subcutaneous into the right trunk of the mice. When the tumor reached an average volume of 300–500 mm^3, in vivo experiments of tracer metabolism were performed.
# All imaging acquisition was performed on a clinical PET-CT scanner (Biograph64, Siemens Healthcare, Erlangen, Germany). Before imaging, the model mice were injected with 50 μL sodium pentobarbital (3%) into the abdominal cavity for anesthesia. […] For quantification of tracer uptake, 3D regions of interest (ROI) were drawn on the muscle, liver, and tumor.
substance,measurement,value
^18F-FDG [reference compound],tumor SUVmax,0.32 ± 0.03
same,tumor-to-liver (T/L) ratio,2.30 ± 0.49
same,tumor-to-muscle (T/M) ratio,8.22 ± 0.19
